{"source": "patent US20200238197A1", "about": "(REPLIGEN, published 2020)", "binders": {"B1": {"name": "IB14 (designed binder)", "chain": "PAAKHDKDQQSAFYEILHLPNLTEDQRSAFIQSLKDDPSVSKEILGEAKKLNDAQAPPWSHPQFEK"}}, "target": "T1, human IgG1", "T1 construct": "also called IgG1 containing antibodies (e.g. Cetuximab for IgG1)", "test": "ELISA, IgG1 antibody coated on plate, detection with Strep-Tactin-HRP"}
{"binder": "B1", "values": [{"measurement": "Kd", "result": 4.9, "unit": "nM"}]}
